The list shows a part of the results, in another mix than the full data. Active and inactive are the calls of the source.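 Rule for the calls: active = more than half of a compound's replicate wells show inhibition beyond 50%, single wells judged on their own value; inconclusive = some, but no more than half, of replicates pass 50% inhibition; inactive = no replicate passes 50% inhibition.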
target: Lysine-specific demethylase 4C (Homo sapiens) (UniProt Q9H3R0); experiment: inhibitors of GASC-1 histone demethylase, primary screen, biochemical, fluorescence, DELFIA europium (AID 2099); conditions: GST-JMJD2C(1-420) H3K9me3 demethylation, at 2.35 µM, stronger effect = higher value;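 note: signal counts dimethyl H3K9 product captured on neutravidin plate; 0% = median of DMSO wells and 100% = 0.3 times that DMSO median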

The chains behind the UniProt entries cited, without tags or fusion partners. Where a name states a change or a piece, a line headed by the entry shows the natural chain unless it says otherwise.
UniProt Q9H3R0: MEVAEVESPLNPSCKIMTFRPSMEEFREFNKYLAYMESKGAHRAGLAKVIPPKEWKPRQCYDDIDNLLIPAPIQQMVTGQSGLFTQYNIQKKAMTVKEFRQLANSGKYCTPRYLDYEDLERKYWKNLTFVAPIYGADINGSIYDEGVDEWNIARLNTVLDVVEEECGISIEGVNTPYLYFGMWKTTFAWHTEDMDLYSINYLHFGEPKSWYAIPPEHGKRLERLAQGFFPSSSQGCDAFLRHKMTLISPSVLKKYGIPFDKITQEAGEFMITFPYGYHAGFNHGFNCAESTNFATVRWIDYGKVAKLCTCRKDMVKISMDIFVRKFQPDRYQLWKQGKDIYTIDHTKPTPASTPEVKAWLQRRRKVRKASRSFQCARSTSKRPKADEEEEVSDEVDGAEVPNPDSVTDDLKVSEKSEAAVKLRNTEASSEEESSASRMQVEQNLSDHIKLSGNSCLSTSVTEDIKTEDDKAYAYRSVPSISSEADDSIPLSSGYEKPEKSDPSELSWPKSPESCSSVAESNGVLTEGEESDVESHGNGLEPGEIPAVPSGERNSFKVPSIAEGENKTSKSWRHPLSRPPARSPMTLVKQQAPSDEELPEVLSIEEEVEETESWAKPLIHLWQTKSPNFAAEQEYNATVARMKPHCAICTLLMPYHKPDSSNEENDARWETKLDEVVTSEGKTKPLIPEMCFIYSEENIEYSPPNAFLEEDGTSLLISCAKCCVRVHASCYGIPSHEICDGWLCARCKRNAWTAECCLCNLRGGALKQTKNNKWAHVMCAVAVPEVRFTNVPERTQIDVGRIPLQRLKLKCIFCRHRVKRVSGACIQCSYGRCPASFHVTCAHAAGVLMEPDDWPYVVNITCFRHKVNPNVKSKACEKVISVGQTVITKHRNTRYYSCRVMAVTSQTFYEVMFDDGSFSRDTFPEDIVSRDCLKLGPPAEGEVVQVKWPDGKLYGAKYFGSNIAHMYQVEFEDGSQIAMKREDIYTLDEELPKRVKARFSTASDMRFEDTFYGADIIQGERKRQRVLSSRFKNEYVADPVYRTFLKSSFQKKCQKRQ

Question: Which inhibition does the source give for O=C(OC1CN2CCC1CC2)c1ccc(Cl)cc1 (stereo not drawn) here?
Answer: inactive: 6.87%

Question: O=[As](O)(O)c1cccnc1 was tested. Which inhibition did it give?
Answer: inactive: -3.63%

Question: COc1cc(C(=O)NCC2(N3CCOCC3)CCCCC2)cc(Cl)c1OC(C)C was tested. Which inhibition did it give?
Answer: inactive: -8.48%

Question: Which inhibition does the source give for CS(=O)(=O)c1ccc(Cl)c(NC(=O)COC(=O)C(O)(c2ccccc2)c2ccccc2)c1 here?
Answer: inactive: 39.2%

Question: How did the inhibition turn out when Cc1cccc(OCC(=O)OC2CN3CCC2CC3)c1 (stereo not drawn) was run?
Answer: inactive: -9.59%

Question: With O=[As](O)(c1cccc(O)c1)c1cccc(O)c1 as the compound, how does the inhibition read?
Answer: inactive: 13.6%

Question: For Cc1ccc(NCCc2c([N+](=O)[O-])cc([N+](=O)[O-])cc2[N+](=O)[O-])cc1, which inhibition is on record?
Answer: inactive: 1.57%

Question: Which inhibition does the source give for Nc1cccc2c([As](=O)(O)O)cccc12 here?
Answer: inactive: 3.17%

Question: With CCCOP(=S)(Nc1nc(N)cc(=O)[nH]1)OCCC as the compound, how does the inhibition read?
Answer: inactive: 10.4%

Question: For COc1cc(C2NCCC3(OCCO3)C2(C)C)cc(OC)c1OC (stereo not drawn), which inhibition is on record?
Answer: inactive: 71.8%

Question: Which inhibition does the source give for CCOP(=O)(Nc1cccc2ccccc12)OCC here?
Answer: inactive: -5.22%

Question: How did the inhibition turn out when CCOP1(=S)c2c(C)nn(CCC#N)c2N=C(c2ccccc2F)N1C (stereo not drawn) was run?
Answer: inactive: -1.63%

Question: For O=P(Nc1nccs1)(Oc1ccccc1)Oc1ccccc1, which inhibition is on record?
Answer: inactive: 0.298%

Question: With O=P(Nc1nccs1)(c1ccccc1)c1nc2ccccc2s1 (stereo not drawn) as the compound, how does the inhibition read?
Answer: inactive: -1.7%

Question: Which inhibition does the source give for CS(=O)(=O)c1cc([N+](=O)[O-])c2no[n+]([O-])c2c1 here?
Answer: inactive: -0.779%

Question: For O=C(O)COc1ccc([As](=O)(O)O)cc1[N+](=O)[O-], which inhibition is on record?
Answer: inactive: -2.07%

Question: For Nc1ccccc1[As](=O)(O)c1ccccc1, which inhibition is on record?
Answer: inactive: 22.8%

Question: Which inhibition does the source give for N#CCCN(C(=O)COC(=O)C(O)(c1ccccc1)c1ccccc1)c1ccc(F)cc1 here?
Answer: inactive: -0.18%

Question: How did the inhibition turn out when CCOP1(=S)c2c(C)nn(CCC#N)c2N=C(c2ccc(F)cc2)N1C (stereo not drawn) was run?
Answer: inactive: 2.64%

Question: For CN(C(=O)Cc1ccccc1)[C@@H]1CC[C@]2(CCCO2)C[C@H]1N1CCCC1, which inhibition is on record?
Answer: inactive: -2.49%

Question: O=[N+]([O-])c1ccc2c(c1)nnn2O was tested. Which inhibition did it give?
Answer: inactive: -13.6%

Question: How did the inhibition turn out when CN(C)C(=O)c1cc([N+](=O)[O-])cc2c1-c1c(cc([N+](=O)[O-])cc1[N+](=O)[O-])C2=O was run?
Answer: inactive: -0.101%

Question: How did the inhibition turn out when CN(C(=O)Cc1ccc(Cl)c(Cl)c1)[C@H]1CC[C@@]2(CCCO2)C[C@@H]1N1CCCC1 was run?
Answer: inactive: 8.45%

Question: For Cc1nn(-c2ccccc2)c2c1P(=O)(N1CCOCC1)N(C)C(c1ccccc1)=N2 (stereo not drawn), which inhibition is on record?
Answer: inactive: 135%

Question: With Cc1ccc(C(=O)OC2CN3CCC2CC3)cc1 (stereo not drawn) as the compound, how does the inhibition read?
Answer: inactive: -11.4%

Question: For CC1CCC(C(C)C)C(OP(=O)(Nc2ccccn2)c2ccccc2)C1 (stereo not drawn), which inhibition is on record?
Answer: inactive: -3.37%

Question: How did the inhibition turn out when CN(C)C1(CNC(=O)c2ccc(S(C)(=O)=O)cc2)CCCCC1 was run?
Answer: inactive: 2.33%

Question: O=C(/C=C/c1ccccc1)OC1CN2CCC1CC2 (stereo not drawn) was tested. Which inhibition did it give?
Answer: inactive: -3.28%

Question: How did the inhibition turn out when O=P1(Nc2ncccn2)COc2ccccc2OC1 was run?
Answer: inactive: 11.8%

Question: How did the inhibition turn out when Nc1cccc([As](=O)(O)c2ccccc2)c1 was run?
Answer: inactive: -6.92%

Question: For Cc1ccc(OCC(=O)OC2CN3CCC2CC3)cc1 (stereo not drawn), which inhibition is on record?
Answer: active: 55%

Question: With O=[As](O)(c1cccs1)c1cccs1 as the compound, how does the inhibition read?
Answer: inactive: -5.63%

Question: With NS(=O)(=O)c1cccc(NC(=O)COC(=O)C(O)(c2ccccc2)c2ccccc2)c1 as the compound, how does the inhibition read?
Answer: inactive: -2.23%

Question: Which inhibition does the source give for O=P1(Nc2ccc(Br)cn2)COc2ccccc2OC1 here?
Answer: inactive: 8.06%

Question: How did the inhibition turn out when CCC1=CC2Cc3nc4ccc(Cl)cc4c(N)c3C(C1)C2 (stereo not drawn) was run?
Answer: inactive: -5.41%

Question: Which inhibition does the source give for O=P1(Nc2ccccn2)COc2ccccc2OC1 here?
Answer: inactive: -10.7%

Question: With CCOP(=O)(NC(=NC(C)c1ccccc1)NC(C)c1ccccc1)OCC (stereo not drawn) as the compound, how does the inhibition read?
Answer: inactive: -17.4%

Question: CN(CCCl)Cc1cc(Cl)c(NC2=NCCN2)c(Cl)c1 was tested. Which inhibition did it give?
Answer: inactive: 5.41%

Question: How did the inhibition turn out when Clc1n[nH]nc1-c1nn[nH][15n]1 was run?
Answer: inactive: 9.37%

Question: CC(C)(C)C(=O)NC(Sc1ncccn1)C(Cl)(Cl)Cl (stereo not drawn) was tested. Which inhibition did it give?
Answer: inactive: 4.11%

Question: For COc1ccccc1CNC(=O)COC(=O)C(O)(c1ccccc1)c1ccccc1, which inhibition is on record?
Answer: inactive: 0.0574%

Question: With CN(C(=O)Cc1ccc(Cl)c(Cl)c1)[C@@H]1CCCC[C@H]1N1CCCC1 as the compound, how does the inhibition read?
Answer: inactive: 7.93%

Question: CC(C)/C=N\N=C(\N)N[N+](=O)[O-] was tested. Which inhibition did it give?
Answer: inactive: -2.05%

Question: For O=[As](O)(c1ccccc1Br)c1ccccc1Br, which inhibition is on record?
Answer: inactive: 5.21%

Question: For CC1(CBr)Cn2c(nc3ccccc3c2=O)S1 (stereo not drawn), which inhibition is on record?
Answer: inactive: 2.25%

Question: With COP1(=S)c2c(C)nn(CCC#N)c2N=C(c2ccc(F)cc2)N1C (stereo not drawn) as the compound, how does the inhibition read?
Answer: inactive: -1.14%

Question: O=C(COc1ccccc1)OC1CN2CCC1CC2 (stereo not drawn) was tested. Which inhibition did it give?
Answer: inactive: 11.3%

Question: With O=C(Nc1ccncc1[N+](=O)[O-])c1ccc([N+](=O)[O-])cc1[N+](=O)[O-] as the compound, how does the inhibition read?
Answer: inactive: -16.3%

Question: For O=C(OC1CN2CCC1CC2)c1cccc([N+](=O)[O-])c1 (stereo not drawn), which inhibition is on record?
Answer: inactive: 3.68%

Question: Which inhibition does the source give for CCOC(=O)c1ccc(NC(=O)C(C)(CCl)SC)cc1 (stereo not drawn) here?
Answer: inactive: 27.6%

Question: How did the inhibition turn out when CCC(C)N(CC(C)C)C(=S)SC(NC(C)=O)C(Cl)(Cl)Cl (stereo not drawn) was run?
Answer: inactive: 21.5%

Question: For CCOC(=O)Nc1ccc([As](=O)(O)O)c(O)c1, which inhibition is on record?
Answer: inactive: 4.94%

Question: How did the inhibition turn out when CCCCOc1ccc(C(=O)NCC2(N3CCCCC3)CCCCC2)cc1OC was run?
Answer: inactive: -10.3%

Question: Which inhibition does the source give for Cc1cc(SC(NC(=O)c2ccccc2)C(Cl)(Cl)Cl)nc(C(C)C)n1 (stereo not drawn) here?
Answer: inactive: 3.16%

Question: How did the inhibition turn out when CCOC(=O)Nc1cccc([As](=O)(O)O)c1 was run?
Answer: inactive: -2.03%

Question: How did the inhibition turn out when Cc1cc(SC(NC=O)C(Cl)(Cl)Cl)ncn1 (stereo not drawn) was run?
Answer: inactive: 9.23%

Question: For O=P(Nc1ccccn1)(c1cccc2ccccc12)c1cccc2ccccc12, which inhibition is on record?
Answer: inactive: 9.71%

Question: For O=[N+]([O-])c1ccc(Nc2ccc(Oc3ccc([N+](=O)[O-])cc3[N+](=O)[O-])cc2)c([N+](=O)[O-])c1, which inhibition is on record?
Answer: inactive: -1.6%

Question: With O=[As](O)(c1ccc(O)cc1)c1ccccc1O as the compound, how does the inhibition read?
Answer: inactive: 8.47%

Question: For COc1cc(C(=O)NCC2(N3CCOCC3)CCCCC2)ccc1OCC(C)C, which inhibition is on record?
Answer: inactive: 5.7%

Question: For Cc1ccc(OP(=O)(Nc2ccc([N+](=O)[O-])cn2)Oc2ccc(C)cc2)cc1, which inhibition is on record?
Answer: inactive: 2.97%

Question: Which inhibition does the source give for Cc1ccc2nc3c(c(C)c2c1)CC(C(Cl)Cl)S3 (stereo not drawn) here?
Answer: inactive: 6.73%

Question: With ClCCSc1nnc(-c2cccnc2)o1 as the compound, how does the inhibition read?
Answer: inactive: 6.16%

From PubChem BioAssay AID2099 (Broad Institute, 2009)
